# Target: Aedes aegypti AChE1 (AaAChE1) (Aedes aegypti, UniProt Q6A2E2)
# Protein sequences, listed by entry. Tags and fused reporters are not part of them. Residues count along the entry.
# UniProt Q6A2E2, 129-702 limits assumed: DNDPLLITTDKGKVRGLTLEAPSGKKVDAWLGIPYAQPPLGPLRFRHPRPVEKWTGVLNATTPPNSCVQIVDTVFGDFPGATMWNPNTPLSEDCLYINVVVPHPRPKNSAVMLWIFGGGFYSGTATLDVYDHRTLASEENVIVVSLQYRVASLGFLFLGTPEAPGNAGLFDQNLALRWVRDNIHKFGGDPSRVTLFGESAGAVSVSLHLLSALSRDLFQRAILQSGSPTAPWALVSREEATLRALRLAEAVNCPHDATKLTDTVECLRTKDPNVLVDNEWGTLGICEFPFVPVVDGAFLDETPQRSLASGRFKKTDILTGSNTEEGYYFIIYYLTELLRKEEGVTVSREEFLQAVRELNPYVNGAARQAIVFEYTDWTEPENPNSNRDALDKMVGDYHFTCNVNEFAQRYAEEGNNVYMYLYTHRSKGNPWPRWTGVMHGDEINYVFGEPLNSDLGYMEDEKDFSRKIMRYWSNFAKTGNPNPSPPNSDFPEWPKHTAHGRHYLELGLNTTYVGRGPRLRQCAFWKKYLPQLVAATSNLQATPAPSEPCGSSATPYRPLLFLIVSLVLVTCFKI
# Assay: Michaelis-Menten kinetics, Ellman assay
# Assay type: biochemical
# Settings: from Vmax and VX active site titration
row,Structure (SMILES),Kcat [s⁻¹]
1,"CC(=O)SCC[N+](C)(C)C [ATChI, acetylthiocholine iodide]",140
2,"CCCC(=O)SCC[N+](C)(C)C [BTChI, butyrylthiocholine iodide]",13
3,"CCC(=O)SCC[N+](C)(C)C [PTChI, propionylthiocholine iodide]",92
